Measured properties of organic chemicals

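The numbers are reported measurements, compiled and curated for the OPERA QSAR suite. The files give a single number for a compound and property, which may rest on several reports. Method, purity and exact conditions of the single measurements are not given. A value may pool stereoisomers or salt forms, and the file does not say which form was measured. Some entries may be limits or estimates that an upstream database listed as plain numbers.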

Melting points are in °C. Boiling points are in °C, nominally at 760 mmHg. The octanol-water partition coefficient is given as log10; larger values mean a more lipophilic compound. Solubility in water is on a log10 molar scale (set defined at 25 °C). Vapor pressure is log10 of mmHg; the set covers 15 to 30 °C, mostly 20 to 25 °C. Henry's law constant (air-water partitioning) is log10 of atm·m3/mol, nominally at 25 °C. The unbound fraction in human plasma runs from 0 (all bound) to 1 (all free). Clint is human hepatic intrinsic clearance in µL/min per million cells; 0 means that no clearance was seen. Cells with "–" have no entry in this list.

melting point (°C) | bp (°C) | logP | water solubility (log10 mol/L) | vapor pressure (log10 mmHg) | Henry's law constant (log10 atm·m3/mol) | fraction unbound | intrinsic clearance (µL/min/10^6 cells) | compound | name
62.5 | – | 2.95 | -4.022 | -6.894 | – | – | – | CCCCCCCCCCCCCCCC(=O)N1C(=O)CCC1C(=O)[O-].[Na+] (stereo unspecified) | Sodium 1-hexadecanoyl-5-oxopyrrolidine-2-carboxylate
-98 | – | 2.08 | – | -3.238 | – | – | – | C=C(C)C(=O)OCCOCCOCCOCC | Ethyltriglycol methacrylate
320 | – | 0.2 | -3.745 | – | – | – | – | CC1=NN(c2cccc(S(=O)(=O)[O-])c2)C(=O)C1/N=N/c1cc(Cl)c(C)cc1S(=O)(=O)[O-].[Ca+2] (stereo partly drawn) | C.I. Pigment Yellow 191
-49.15 | – | 0.6 | – | – | – | – | – | CCC1(CO)COC1 | 3-Oxetanemethanol, 3-ethyl-
– | – | – | – | – | – | 0.0234 | 2.09 | O=C(N[C@@H](Cc1ccccc1)[C@@H](O)C(=O)N1C[C@@H](O)[C@@H](O)C1)c1cc2cc(Cl)ccc2[nH]1 | Ingliforib
14 | – | -1.47 | – | -3.618 | – | – | – | NCCCOCCOCCO | Ethanol, 2-[2-(3-aminopropoxy)ethoxy]-
– | – | 0.6 | -4.571 | – | – | – | – | N#CNC(=N)NCCCCCCNC(=N)NC#N | Guanidine, N,N'''-1,6-hexanediylbis[N'-cyano-
194.4 | – | 4.49 | – | – | – | – | – | O=c1oc(-c2ccccc2NS(=O)(=O)c2ccc3ccccc3c2)nc2ccccc12 | –
– | – | 2.2 | -4.348 | – | – | – | – | CCCCC(=O)OCC(=O)[C@]1(O)Cc2c(O)c3c(c(O)c2[C@@H](O[C@H]2C[C@H](NC(=O)C(F)(F)F)[C@H](O)[C@H](C)O2)C1)C(=O)c1c(OC)cccc1C3=O | Valrubicin
– | – | 3.27 | – | – | -7.041 | – | – | NC(=O)c1nc(-c2ccccc2)n(-c2ccc(Cl)c(COCC(F)(F)C(F)(F)F)c2)n1 | Flupoxam
290 | – | – | -0.696 | – | – | – | – | Cc1cc2nc3c(=O)[nH]c(=O)nc-3n(C[C@H](O)[C@H](O)[C@H](O)COP(=O)(O)O)c2cc1C | Riboflavin phosphate
– | – | 4.5 | -5.38 | – | – | – | – | COc1ccc2c(c1)C(=O)N(CCc1ccc(S(=O)(=O)NC(=O)NC3CCCCC3)cc1)C(=O)C2(C)C | Gliquidone
-12.5 | – | – | -3.803 | -2.523 | – | – | – | CC(=O)C=CC1C(C)=CCC(C)C1(C)C (stereo unspecified) | alpha-Irone
75 | 248 | 5.8 | -5.748 | -5.576 | – | – | – | IC[C@H]1CC[C@H](CI)CC1 | trans-1,4-Bis(iodomethyl)cyclohexane
-113 | 222 | 1.76 | – | -0.694 | – | – | – | C=C(C)C(=O)OCC1CCCO1 (stereo unspecified) | Tetrahydrofurfuryl methacrylate
221 | – | 2.4 | -6.827 | – | – | – | – | O=C(NCCCCCCNC(=O)NCc1ccccc1)NCc1ccccc1 | Urea, N,N''-1,6-hexanediylbis[N'-(phenylmethyl)-
– | 263 | – | -2.942 | – | – | – | – | CC1(C)C2CC3C(C2)C31C(=O)O | 7,7-Dimethyltricyclo[2.2.1.02,6]heptane-1-carboxylic acid
– | – | – | -2.933 | – | – | 0.15 | – | CN1C(CSCC(F)(F)F)Nc2cc(Cl)c(S(N)(=O)=O)cc2S1(=O)=O (stereo unspecified) | Polythiazide
– | – | – | – | – | – | 0.265 | 4.283 | C=CCOc1ccccc1OCC(O)CNC(C)C (stereo unspecified) | Oxprenolol
– | – | – | – | – | – | 0.00409 | 3.4 | Cc1oc(-c2ccccc2)nc1CCOc1cccc2c1ccn2CCC(=O)O | –
– | 364 | 0.49 | -1.617 | -4.523 | – | – | – | CCCn1c(=O)c(C)cn2nc(N)nc12 | –
– | – | -0.6 | -1.66 | – | – | 0.1 | – | O=P(O)(O)C(Sc1ccc(Cl)cc1)P(=O)(O)O | Tiludronic acid
– | – | 2.902 | -3.055 | – | – | – | – | CCNC(=O)C1CC(C)CCC1C(C)C (stereo unspecified) | N-Ethyl-2-(isopropyl)-5-methylcyclohexanecarboxamide
210 | – | – | – | – | – | 0.0114 | 0 | CCOC(=O)c1ccccc1C(=C1C=C(Br)C(=O)C(Br)=C1)c1cc(Br)c(O)c(Br)c1 | Tetrabromophenolphthalein ethyl ester
– | – | 1.03 | -1.85 | -5.27 | – | – | – | O=C(O)CC(C(=O)O)c1ccccc1 (stereo unspecified) | Butanedioic acid, 2-phenyl-
– | – | -2.1 | -1.377 | – | – | – | – | CCCCCN(C)CCC(O)(P(=O)(O)O)P(=O)(O)O | Ibandronic acid
152 | – | 1 | – | – | – | – | – | CC(CC(N)=O)n1nc2ccccc2n1 (stereo unspecified) | 3-(2H-Benzotriazol-2-yl)butanamide
– | – | 1.2 | -1.82 | -1.62 | – | – | – | COc1cc(C)ccc1O | 2-Methoxy-4-methylphenol
42.85 | – | 4.385 | – | -4.523 | – | – | – | CCCC[C@H]1CC[C@H](C2CCC(=O)CC2)CC1 | –
-6.3 | – | – | – | -1.973 | – | – | – | COCc1ccc(COC)cc1 | 1,4-Bis(methoxymethyl)benzene
– | – | 2.04 | -1.559 | 1.176 | – | – | – | CCCOCOCCC | Propane, 1,1'-[methylenebis(oxy)]bis-
– | – | – | -2.631 | – | -6.353 | – | – | CC1=C(C(=O)Nc2ccccc2)S(=O)CCO1 (stereo unspecified) | Carboxin sulfoxide
– | – | 4.6 | -3.989 | 0.009 | – | – | – | CC(=O)OCCC(C)CC(C)(C)C (stereo unspecified) | 3,5,5-Trimethylhexyl acetate
46.5 | – | – | -5.868 | -10.24 | – | – | – | CCCCCCCCCCCCC(CCCCCCCCCC)C(=O)O (stereo unspecified) | Tetradecanoic acid, 2-decyl-
– | – | 0.1 | 0.147 | – | – | – | – | NCCc1cc[nH]n1 | Betazole
150 | – | – | – | -4.732 | – | – | – | O=S1(=O)CS(=O)(=O)OCO1 | 1,5,2,4-dioxadithiane 2,2,4,4-tetraoxide

A selection of 3 entries from above:

compound | name | melting point (°C) | bp (°C) | logP | water solubility (log10 mol/L) | vapor pressure (log10 mmHg) | Henry's law constant (log10 atm·m3/mol) | fraction unbound | intrinsic clearance (µL/min/10^6 cells)
O=C(O)CC(C(=O)O)c1ccccc1 (stereo unspecified) | Butanedioic acid, 2-phenyl- | – | – | 1.03 | -1.85 | -5.27 | – | – | –
CCCCCCCCCCCCCCCC(=O)N1C(=O)CCC1C(=O)[O-].[Na+] (stereo unspecified) | Sodium 1-hexadecanoyl-5-oxopyrrolidine-2-carboxylate | 62.5 | – | 2.95 | -4.022 | -6.894 | – | – | –
CCNC(=O)C1CC(C)CCC1C(C)C (stereo unspecified) | N-Ethyl-2-(isopropyl)-5-methylcyclohexanecarboxamide | – | – | 2.902 | -3.055 | – | – | – | –

Data: OPERA 2.9 data sets, kmansouri/OPERA on GitHub.